Measured values published in the supplement of paper PMC11403291.

Protein sequences, listed by entry. Tags and fused reporters are not part of them. Lines headed by an entry give the natural chain unless they say otherwise; changes in a name come on top.
UniProt Q9Y6R4: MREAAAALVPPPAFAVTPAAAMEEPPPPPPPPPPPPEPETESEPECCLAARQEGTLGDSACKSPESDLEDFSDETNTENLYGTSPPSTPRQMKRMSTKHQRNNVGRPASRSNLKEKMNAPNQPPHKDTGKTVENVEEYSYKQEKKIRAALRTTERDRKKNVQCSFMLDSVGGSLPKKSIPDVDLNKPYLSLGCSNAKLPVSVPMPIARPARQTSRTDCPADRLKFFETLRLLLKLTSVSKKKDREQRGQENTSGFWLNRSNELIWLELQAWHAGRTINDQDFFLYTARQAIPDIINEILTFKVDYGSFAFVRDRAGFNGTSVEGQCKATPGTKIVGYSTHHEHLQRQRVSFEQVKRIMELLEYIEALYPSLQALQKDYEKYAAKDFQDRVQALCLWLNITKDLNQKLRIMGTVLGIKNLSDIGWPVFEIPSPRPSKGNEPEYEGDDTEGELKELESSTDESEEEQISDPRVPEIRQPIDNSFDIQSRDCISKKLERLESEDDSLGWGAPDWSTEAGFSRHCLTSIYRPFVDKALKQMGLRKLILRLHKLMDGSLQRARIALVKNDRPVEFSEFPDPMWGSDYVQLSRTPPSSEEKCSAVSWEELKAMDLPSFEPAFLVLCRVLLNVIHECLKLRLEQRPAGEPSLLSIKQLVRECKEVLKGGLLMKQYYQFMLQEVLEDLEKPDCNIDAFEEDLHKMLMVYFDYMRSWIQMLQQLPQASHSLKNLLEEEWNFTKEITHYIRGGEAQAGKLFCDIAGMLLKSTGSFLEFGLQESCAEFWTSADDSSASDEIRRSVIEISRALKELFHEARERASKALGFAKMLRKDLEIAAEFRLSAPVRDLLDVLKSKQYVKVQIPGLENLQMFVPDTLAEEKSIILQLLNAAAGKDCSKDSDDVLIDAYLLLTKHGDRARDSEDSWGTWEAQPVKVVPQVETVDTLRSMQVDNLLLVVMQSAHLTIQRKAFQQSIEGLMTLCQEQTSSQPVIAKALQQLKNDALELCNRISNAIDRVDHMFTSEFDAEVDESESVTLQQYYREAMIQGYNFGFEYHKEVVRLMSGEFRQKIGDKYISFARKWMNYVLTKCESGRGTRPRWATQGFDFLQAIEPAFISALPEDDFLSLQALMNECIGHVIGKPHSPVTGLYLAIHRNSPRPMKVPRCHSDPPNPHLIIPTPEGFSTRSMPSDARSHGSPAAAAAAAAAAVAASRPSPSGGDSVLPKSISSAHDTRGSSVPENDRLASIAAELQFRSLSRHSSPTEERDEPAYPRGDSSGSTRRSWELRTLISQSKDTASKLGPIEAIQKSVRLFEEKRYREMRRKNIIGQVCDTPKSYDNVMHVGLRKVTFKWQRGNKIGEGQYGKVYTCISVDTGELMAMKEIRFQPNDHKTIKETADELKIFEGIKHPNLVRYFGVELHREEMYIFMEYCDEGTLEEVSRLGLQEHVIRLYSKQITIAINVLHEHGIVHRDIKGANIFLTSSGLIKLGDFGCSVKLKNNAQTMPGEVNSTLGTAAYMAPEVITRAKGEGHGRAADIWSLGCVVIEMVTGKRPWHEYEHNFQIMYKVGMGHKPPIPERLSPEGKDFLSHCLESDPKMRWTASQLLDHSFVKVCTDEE
UniProt P37173, whole entry: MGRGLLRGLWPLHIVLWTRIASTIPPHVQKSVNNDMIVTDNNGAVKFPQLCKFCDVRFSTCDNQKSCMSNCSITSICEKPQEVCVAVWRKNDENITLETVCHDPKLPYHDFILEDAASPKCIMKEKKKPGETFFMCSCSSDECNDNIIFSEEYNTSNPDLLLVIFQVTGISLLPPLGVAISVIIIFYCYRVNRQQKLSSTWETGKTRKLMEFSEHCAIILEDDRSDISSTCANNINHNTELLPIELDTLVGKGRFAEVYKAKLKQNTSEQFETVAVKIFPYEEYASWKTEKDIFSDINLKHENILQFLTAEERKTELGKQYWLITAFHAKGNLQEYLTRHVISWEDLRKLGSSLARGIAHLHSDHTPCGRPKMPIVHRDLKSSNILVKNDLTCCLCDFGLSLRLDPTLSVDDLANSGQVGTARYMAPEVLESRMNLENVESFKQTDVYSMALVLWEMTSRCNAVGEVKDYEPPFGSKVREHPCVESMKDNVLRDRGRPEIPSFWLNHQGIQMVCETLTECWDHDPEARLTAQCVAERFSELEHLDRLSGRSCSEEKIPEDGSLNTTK
UniProt Q9H2G2: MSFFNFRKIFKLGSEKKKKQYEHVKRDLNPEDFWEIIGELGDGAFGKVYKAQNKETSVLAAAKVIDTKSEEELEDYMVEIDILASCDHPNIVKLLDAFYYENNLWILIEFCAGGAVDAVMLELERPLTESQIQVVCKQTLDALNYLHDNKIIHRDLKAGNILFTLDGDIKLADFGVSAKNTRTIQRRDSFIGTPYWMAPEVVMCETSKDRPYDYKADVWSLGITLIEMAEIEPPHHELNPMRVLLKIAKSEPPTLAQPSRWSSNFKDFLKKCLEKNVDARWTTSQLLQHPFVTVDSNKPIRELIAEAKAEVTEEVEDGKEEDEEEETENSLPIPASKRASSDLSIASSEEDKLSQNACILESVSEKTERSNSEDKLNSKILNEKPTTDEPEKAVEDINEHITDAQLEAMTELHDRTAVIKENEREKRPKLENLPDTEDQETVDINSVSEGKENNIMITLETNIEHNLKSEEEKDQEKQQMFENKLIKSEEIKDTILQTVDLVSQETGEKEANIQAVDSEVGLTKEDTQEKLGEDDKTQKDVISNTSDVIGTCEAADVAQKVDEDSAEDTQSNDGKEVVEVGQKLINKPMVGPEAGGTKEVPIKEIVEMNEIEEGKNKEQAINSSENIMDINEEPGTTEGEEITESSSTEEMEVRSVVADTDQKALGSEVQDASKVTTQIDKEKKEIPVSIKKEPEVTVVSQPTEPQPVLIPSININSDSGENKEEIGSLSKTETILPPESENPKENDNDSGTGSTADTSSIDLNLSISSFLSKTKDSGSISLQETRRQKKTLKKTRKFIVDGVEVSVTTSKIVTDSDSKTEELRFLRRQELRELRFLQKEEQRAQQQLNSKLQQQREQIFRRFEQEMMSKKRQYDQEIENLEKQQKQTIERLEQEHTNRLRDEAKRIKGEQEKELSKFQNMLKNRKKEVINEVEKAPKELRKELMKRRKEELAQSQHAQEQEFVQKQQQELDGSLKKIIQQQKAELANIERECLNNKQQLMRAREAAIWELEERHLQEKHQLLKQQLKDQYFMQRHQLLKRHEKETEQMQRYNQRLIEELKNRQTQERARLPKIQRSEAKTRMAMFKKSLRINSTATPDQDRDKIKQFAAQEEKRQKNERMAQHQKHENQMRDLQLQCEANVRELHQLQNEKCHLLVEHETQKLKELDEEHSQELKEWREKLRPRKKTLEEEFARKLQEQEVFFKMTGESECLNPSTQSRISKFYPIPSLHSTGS
UniProt P09769: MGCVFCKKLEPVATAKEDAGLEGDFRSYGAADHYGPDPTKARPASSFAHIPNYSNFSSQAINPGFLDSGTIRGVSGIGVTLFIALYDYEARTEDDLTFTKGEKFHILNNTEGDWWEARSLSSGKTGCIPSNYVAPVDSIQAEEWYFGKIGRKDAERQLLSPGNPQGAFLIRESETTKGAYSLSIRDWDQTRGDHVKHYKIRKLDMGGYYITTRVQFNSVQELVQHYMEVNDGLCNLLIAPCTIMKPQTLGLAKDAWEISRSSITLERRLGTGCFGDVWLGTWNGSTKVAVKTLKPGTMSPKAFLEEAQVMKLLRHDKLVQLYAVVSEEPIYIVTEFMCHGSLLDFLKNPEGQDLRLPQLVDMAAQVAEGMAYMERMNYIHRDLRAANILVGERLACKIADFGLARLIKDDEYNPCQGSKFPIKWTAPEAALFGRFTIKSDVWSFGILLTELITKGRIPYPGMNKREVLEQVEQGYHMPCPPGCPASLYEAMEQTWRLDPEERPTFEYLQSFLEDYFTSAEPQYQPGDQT

Legend:
Assay in all cases: apparent dissociation constant pKd app (kinobead competition) (-log10(M)); higher = stronger binding
DSTYK = molecular target: T1, DSTYK (UniProt Q6XUX3)
T1 sequence (whole entry): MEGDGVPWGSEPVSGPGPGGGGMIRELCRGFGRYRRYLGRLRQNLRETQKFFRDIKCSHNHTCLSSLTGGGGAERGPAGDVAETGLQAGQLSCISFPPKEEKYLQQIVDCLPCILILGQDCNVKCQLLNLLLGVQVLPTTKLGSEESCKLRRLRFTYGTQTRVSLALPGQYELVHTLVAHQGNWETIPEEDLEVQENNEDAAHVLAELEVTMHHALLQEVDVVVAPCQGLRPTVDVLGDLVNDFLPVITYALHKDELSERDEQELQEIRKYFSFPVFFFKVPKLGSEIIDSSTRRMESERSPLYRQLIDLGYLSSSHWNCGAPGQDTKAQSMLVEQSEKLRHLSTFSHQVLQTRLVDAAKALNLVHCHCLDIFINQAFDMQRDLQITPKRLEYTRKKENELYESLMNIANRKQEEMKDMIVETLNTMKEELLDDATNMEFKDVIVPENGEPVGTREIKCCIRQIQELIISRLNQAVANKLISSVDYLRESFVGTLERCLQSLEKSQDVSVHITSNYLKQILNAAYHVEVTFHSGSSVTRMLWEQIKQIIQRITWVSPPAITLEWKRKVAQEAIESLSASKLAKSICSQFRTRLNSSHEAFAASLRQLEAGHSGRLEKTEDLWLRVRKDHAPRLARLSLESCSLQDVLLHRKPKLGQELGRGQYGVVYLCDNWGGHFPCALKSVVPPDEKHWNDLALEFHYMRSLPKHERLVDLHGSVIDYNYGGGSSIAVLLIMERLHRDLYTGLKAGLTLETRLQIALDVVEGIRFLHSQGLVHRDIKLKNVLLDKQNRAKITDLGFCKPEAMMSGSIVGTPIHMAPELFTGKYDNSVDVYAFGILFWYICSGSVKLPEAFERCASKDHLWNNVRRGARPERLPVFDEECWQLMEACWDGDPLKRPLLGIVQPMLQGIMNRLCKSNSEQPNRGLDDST

PRKCA = PRKCA (UniProt P17252)
MAP3K4 = MAP3K4 (UniProt Q9Y6R4)
TGFBR2 = TGFBR2 (UniProt P37173)
GAK = molecular target: T2, GAK (UniProt O14976)
T2 sequence (whole entry): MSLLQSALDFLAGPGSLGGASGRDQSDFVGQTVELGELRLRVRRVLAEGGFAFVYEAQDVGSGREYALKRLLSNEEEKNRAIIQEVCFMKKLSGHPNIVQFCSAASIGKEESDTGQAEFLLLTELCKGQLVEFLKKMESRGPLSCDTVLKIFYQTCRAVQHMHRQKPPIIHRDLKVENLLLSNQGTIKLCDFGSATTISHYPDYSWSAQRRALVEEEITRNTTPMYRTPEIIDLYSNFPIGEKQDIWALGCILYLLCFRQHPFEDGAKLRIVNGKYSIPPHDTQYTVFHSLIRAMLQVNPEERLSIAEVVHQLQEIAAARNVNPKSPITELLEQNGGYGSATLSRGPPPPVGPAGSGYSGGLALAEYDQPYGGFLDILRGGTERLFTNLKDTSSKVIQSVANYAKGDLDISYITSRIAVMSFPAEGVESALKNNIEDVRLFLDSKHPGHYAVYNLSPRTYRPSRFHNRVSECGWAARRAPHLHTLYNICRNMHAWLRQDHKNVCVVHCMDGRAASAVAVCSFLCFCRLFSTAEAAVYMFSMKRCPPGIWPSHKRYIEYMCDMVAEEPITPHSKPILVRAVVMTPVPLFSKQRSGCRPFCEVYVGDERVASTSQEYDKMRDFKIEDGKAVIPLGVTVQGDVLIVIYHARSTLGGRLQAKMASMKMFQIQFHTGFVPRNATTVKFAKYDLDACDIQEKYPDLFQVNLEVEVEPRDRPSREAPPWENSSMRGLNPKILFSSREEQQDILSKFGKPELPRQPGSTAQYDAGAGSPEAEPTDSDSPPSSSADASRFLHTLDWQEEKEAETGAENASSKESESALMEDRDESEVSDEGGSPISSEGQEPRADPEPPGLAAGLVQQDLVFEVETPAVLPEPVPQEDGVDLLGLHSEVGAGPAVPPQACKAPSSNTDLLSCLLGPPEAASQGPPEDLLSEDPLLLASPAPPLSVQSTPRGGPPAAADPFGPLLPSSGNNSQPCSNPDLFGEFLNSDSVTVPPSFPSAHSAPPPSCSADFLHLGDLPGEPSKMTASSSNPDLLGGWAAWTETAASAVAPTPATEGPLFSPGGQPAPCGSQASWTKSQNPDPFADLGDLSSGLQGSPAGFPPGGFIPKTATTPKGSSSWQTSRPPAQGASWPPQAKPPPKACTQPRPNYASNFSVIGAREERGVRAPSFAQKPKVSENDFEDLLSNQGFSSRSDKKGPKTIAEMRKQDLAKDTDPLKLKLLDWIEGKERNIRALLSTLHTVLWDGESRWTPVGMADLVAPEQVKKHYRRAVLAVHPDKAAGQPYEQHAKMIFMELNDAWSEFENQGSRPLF

SLK = SLK (UniProt Q9H2G2)
FGR = FGR (UniProt P09769)

NC(=O)c1cccc2cn(-c3ccc([C@@H]4CCCNC4)cc3)nc12 [Niraparib]
apparent dissociation constant pKd app (-log10) (DSTYK): < 4.5 | apparent dissociation constant pKd app (-log10) (PRKCA): < 4.6 | apparent dissociation constant pKd app (-log10) (MAP3K4): < 4.6 | apparent dissociation constant pKd app (-log10) (TGFBR2): < 4.8 | apparent dissociation constant pKd app (-log10) (GAK): < 4.8 | apparent dissociation constant pKd app (-log10) (SLK): < 4.5 | apparent dissociation constant pKd app (-log10) (FGR): < 4.8

O=C(c1cc(Cc2n[nH]c(=O)c3ccccc23)ccc1F)N1CCN(C(=O)C2CC2)CC1 [Olaparib]
apparent dissociation constant pKd app (-log10) (DSTYK): < 4.5 | apparent dissociation constant pKd app (-log10) (PRKCA): < 4.6 | apparent dissociation constant pKd app (-log10) (MAP3K4): < 4.6 | apparent dissociation constant pKd app (-log10) (TGFBR2): < 4.8 | apparent dissociation constant pKd app (-log10) (GAK): < 4.8 | apparent dissociation constant pKd app (-log10) (SLK): < 4.5 | apparent dissociation constant pKd app (-log10) (FGR): < 4.8

Cn1ncnc1[C@H]1c2n[nH]c(=O)c3cc(F)cc(c23)N[C@@H]1c1ccc(F)cc1 [Talazoparib]
apparent dissociation constant pKd app (-log10) (DSTYK): < 4.5 | apparent dissociation constant pKd app (-log10) (PRKCA): < 4.6 | apparent dissociation constant pKd app (-log10) (MAP3K4): < 4.6 | apparent dissociation constant pKd app (-log10) (TGFBR2): < 4.8 | apparent dissociation constant pKd app (-log10) (GAK): < 4.8 | apparent dissociation constant pKd app (-log10) (SLK): < 4.5 | apparent dissociation constant pKd app (-log10) (FGR): < 4.8
